Experimental data published in ChEMBL document CHEMBL4354803, “Synthesis and biological activity of structurally diverse phthalazine derivatives: A systematic review” (Bioorg Med Chem, 2019).

Target: Aldo-keto reductase family 1 member B1 (Homo sapiens, UniProt P15121)

- IC50: 2.1 nM
Compound: O=C(O)Cc1nn(Cc2nc3cc(C(F)(F)F)ccc3s2)c(=O)c2ccccc12 [ZOPOLRESTAT]
